# Measured values reported in BindingDB's records for patent US8633204 (Pfizer, 2014).
# By UniProt entry, the sequences of proteins in these tests, tags left out.
# UniProt P42337, whole entry: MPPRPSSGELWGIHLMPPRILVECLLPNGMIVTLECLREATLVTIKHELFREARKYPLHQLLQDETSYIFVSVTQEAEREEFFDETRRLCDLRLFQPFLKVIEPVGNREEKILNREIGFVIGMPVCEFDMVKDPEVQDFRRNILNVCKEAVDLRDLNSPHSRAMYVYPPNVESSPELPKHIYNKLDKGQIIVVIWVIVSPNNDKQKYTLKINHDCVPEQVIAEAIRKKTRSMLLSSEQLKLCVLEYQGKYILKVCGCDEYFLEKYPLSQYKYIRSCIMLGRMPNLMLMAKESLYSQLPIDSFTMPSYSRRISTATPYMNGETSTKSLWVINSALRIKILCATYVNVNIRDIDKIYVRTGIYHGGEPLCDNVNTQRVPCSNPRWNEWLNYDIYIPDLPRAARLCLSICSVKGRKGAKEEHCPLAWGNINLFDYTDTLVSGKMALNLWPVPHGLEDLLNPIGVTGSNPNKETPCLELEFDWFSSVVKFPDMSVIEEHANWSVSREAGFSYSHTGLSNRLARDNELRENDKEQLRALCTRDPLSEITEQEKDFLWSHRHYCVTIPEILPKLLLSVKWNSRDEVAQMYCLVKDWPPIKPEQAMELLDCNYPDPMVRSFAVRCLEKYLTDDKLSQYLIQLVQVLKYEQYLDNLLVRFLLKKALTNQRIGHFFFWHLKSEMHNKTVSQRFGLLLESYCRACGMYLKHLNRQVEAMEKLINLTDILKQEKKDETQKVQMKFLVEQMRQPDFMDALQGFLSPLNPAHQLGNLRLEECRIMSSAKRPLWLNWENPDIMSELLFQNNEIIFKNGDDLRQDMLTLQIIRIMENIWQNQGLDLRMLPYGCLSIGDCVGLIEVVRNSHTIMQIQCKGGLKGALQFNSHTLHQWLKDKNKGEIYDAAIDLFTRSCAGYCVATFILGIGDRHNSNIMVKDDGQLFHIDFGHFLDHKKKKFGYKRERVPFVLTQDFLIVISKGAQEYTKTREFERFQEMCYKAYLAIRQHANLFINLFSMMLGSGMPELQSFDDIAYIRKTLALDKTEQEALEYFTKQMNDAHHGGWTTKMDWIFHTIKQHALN
# pIC50: −log10 of the molar value.
# Target: Phosphatidylinositol 4,5-bisphosphate 3-kinase catalytic subunit alpha isoform (Mus musculus, UniProt P42337)
# Assay: Biochemical Assay
# Conditions: pH 7.4; 25 °C
# Method: Compounds of the present invention were evaluated for potency against PI3-Kα using an in vitro kinase assay. PI3-Kα activity is measured in vitro by determining the level of phosphorylation of the substrate PI(4,5)P2. The formation of product PI(3,4,5)P3 is monitored by binding to the Grip1 PH domain in a ligand displacement fluorescence polarization (FP) assay, in which the TAMRA-labeled PI(3,4,5)P3 complexed with Grip1 PH domain is displaced by PI(3,4,5)P3 formed in the PI3-Kα reaction resulting in a decrease in FP signal.
row,Compound,pIC50
1,"CCOC(=O)c1cccc(-c2cc3c(C)nc(NC)nc3n(C3CCCC3)c2=O)c1 [US8633204, 141]",5.15
2,"Cc1nc(N)nc2c1cc(-c1ccc(N(C)C)nc1)c(=O)n2[C@H]1CC[C@@H](O)CC1 [US8633204, 181]",7.92
